{
  "source": "patent US20150320696A1",
  "about": "“COMBINATION THERAPY FOR CANCER” (priority 2012, published 2015)",
  "system": "DLD-1 colorectal cancer cell line xenograft",
  "assay": "Xenograft model of nude mice bearing DLD-1 colorectal cancer cell line",
  "format": "in vivo, athymic nude mice",
  "conditions": "Example 6; Erbitux 10 mg/Kg body weight i.p. every second day, after two weeks of treatment; FIG. 6",
  "description": "Male athymic nude mice, 6-8 weeks old, (Harlan Laboratories) were housed in sterile cages and handled with aseptic precautions. The mice were fed ad libitum. The therapeutic anti-cancer activity of terpinen-4-ol alone or in combination with additional anti-cancer agents was examined as follows: exponentially growing DLD1 cancer cells were harvested and resuspended at a final concentration of 5×10^6 cells per 0.2 ml PBS per injection. The cells were injected subcutaneously at two sites on the backs of the mice. When tumors were palpable, mice were randomly divided into the treatment groups as described hereinbelow. […]\nMice were treated every second day. The mice were weighed and tumor volume was measured every three days (with a caliper) starting from the onset of treatment with terpinen-4-ol/control. Tumor volume was calculated as 4/3π·a·b^2. At the end of the experiment, the mice were sacrificed by cervical dislocation after anesthesia and the tumors were excised and measured for volume and weight. […]\nThe treatment groups were as follows (4 mice per group): Control—1% DMSO in PBS; Erb—10 mg/Kg body weight of Erbitux®; 1A—50 μl 0.1% terpinen-4-ol dissolved in 1% DMSO in PBS; and Erb+1A—combination of Erbitux at 10 mg/Kg body weight and 0.1% terpinen-4-ol dissolved in 1% DMSO in PBS. […] Mice were weighed and tumor volume was measured with a caliper before each additional treatment. […]",
  "data": [
    {"substance": "Erbitux®: humanized monoclonal antibody that binds the epidermal growth factor receptor (EGFR) [reference compound]", "values": [
      {"measurement": "reduction of tumor size compared to control", "value": "about 23.5%"}
    ]}
  ]
}
